Test results as given in PubChem BioAssay AID2472 (National Center for Advancing Translational Sciences (NCATS), 2010).
The list shows a part of the results, in another mix than the full data. Activity calls are given as the source filed them. No stated cut-off is given here; in the data, active means activity change below about -30%; inactive means the rest, inconclusive results apart.

Test: qHTS Assay for Inhibitors of Fructose-1,6-bisphosphate Aldolase from Giardia Lamblia: Coupling assay counterscreen
Conditions: coupling enzyme system counterscreen, AmpLite Red fluorescence; at 58.2 µM (top of the series)
Description: MLPCN Grant: MH085699-01 Assay Provider: Osnat Herzberg, University of Maryland NCGC Assay Overview: The objective of this project is to obtain compounds that inhibit Giardia lamblia growth. G. lamblia is a human pathogen which afflicts impoverished nations; it is the most common cause of outbreaks of diarrhea in the United States. During the course of our study of potential drug targets in Giardia, we have identified the Class II (Zn2+ functions in electrophilic catalysis) fructose-1,6-bisphosphate aldolase (FBPA) as an excellent candidate for drug targeting. FBPA is a key glycolytic pathway enzyme, essential for G. lamblia survival. The human FBPA belongs to the Class I aldolases, which have a different substrate binding site structure and a radically different catalytic mechanism (employing a lysine-Schiff base intermediate). Therefore, affinity-based or mechanism-based inhibitors of the Giardia FBPA are expected not to interfere with the catalytic function of the human FBPA. A glyceraldehyde-3-phosphate dehydrogenase/triose phosphate isomerase/NAD/arsenate coupled assay was adapted to the 1536-well HTP format for use in the primary screen. This was done by coupling it to a diaphorase/resazurin/resorufin reaction that can be monitored by fluorescence (excitation, 544 nm; emission, 590 nm). Compounds identified in this screen will be further evaluated by coupling the […]/triose phosphate isomerase/NADH assay to a phenazine methosulfate/tetranitroblue tetrazolium color reaction. False positives due to the dehydrogenases and diaphorase inhibition will be eliminated, and selectivity assay will triage inhibitors of mammalian triose phosphate isomerase and the Class I FBPA. G. lamblia FBPA inhibitors identified by the in vitro analyses will be examined for growth inhibition of Giardia trophozoites, and for cytotoxicity in human cells. This assay specifically addresses whether activity observed in the primary screen (AID 2451) is related to inhibition of the coupling assay used, as opposed to inhibition of aldolase. Actives in this assay are considered inconclusive for activity against aldolase.
NCGC Assay Protocol: Step,Parameter,Value,Description 1,Coupling enzyme reagent,2 uL,glyceraldehyde-3-phosphate 2,Compound,23 nL,3.68 nM-57.5 uM final concentration 3,Time,10 min,RT Incubation 4,Substrate/detection Reagent,2 uL,Substrate + enzyme coupling system + AmpLite Red kit 5,Time,20 min,RT Incubation 6,Detector,525 nm/598 nm (Fluorescence),ViewLux Fluorescence Read (Read 1) Notes: 1,Medium-binding black solid-bottom Kalypsys plates. FRD or Kalypsys dispenser. 2,Compound Library (10 mM ,1:5 dilution). Pin-transferred for a [final] range of 3.68 nM-57.5 uM. 3,RT incubation 4,FRD or Kalypsys dispenser, 2 uL of reaction mixture. Bottle kept at 4C and covered in foil to protect from light. 5,RT incubation 6,ViewLux Protocol 1194; Excitation filter wheel A (525/20 Pol; BODIPY TMR FP), Emission filter wheel B (598/25 S; BODIPY TMR FP S). Keywords: Fructose-bisphosphate aldolase, FBPA , Giardia lamblia , Giardia, HTS, Inhibitors
On the % scale 0 is the no-effect control and ±100 the full control effect.

Row | SMILES | activity change, negative = inhibition
1 | CCN(CC)CCCOC(=O)C(O)(c1ccccc1)c1ccccc1 | inactive: 3.88%
2 | CCOC(=O)c1ccc(NP(C)(=O)Oc2ccccc2)cc1 (configuration not stated) | inactive: -1.03%
3 | Cc1ccc(NP(C)(=O)Oc2ccccc2)c(C)c1 (configuration not stated) | inactive: 3.69%
4 | COc1ccccc1OP(C)(=O)Nc1ccc(C)cc1 (configuration not stated) | inactive: 0.934%
5 | COc1ccc(OP(C)(=O)Nc2cccc(F)c2)cc1 (configuration not stated) | inactive: -0.926%
6 | COc1ccccc1OP(C)(=O)Nc1cc(Cl)ccc1C (configuration not stated) | inactive: 0.809%
7 | Cc1cc(C)cc(OP(C)(N)=O)c1 (configuration not stated) | inactive: -1.17%
8 | O=C(O)C1(O)c2ccccc2-c2ccccc21 | inactive: -0.245%
9 | Cc1cccc(C)c1OP(C)(N)=O (configuration not stated) | inactive: 0.903%
10 | O=C(O)C(O)(c1ccccc1)c1ccccc1 | inactive: 0.191%
11 | CC(C)(C)c1ccc(OP(C)(=O)Nc2ccc(SC(F)(F)F)cc2)cc1 (configuration not stated) | inactive: -3.93%
12 | O=[N+]([O-])c1ccc2c(c1)C=Nc1ccccc1O2 | inactive: -16.1%
13 | CP(=S)(Nn1cnnc1)Oc1ccccc1 (configuration not stated) | inactive: 1.68%
14 | COc1ccccc1OP(C)(=O)Nc1ccccc1 (configuration not stated) | inactive: 2.49%
15 | CP(=O)(Nc1ccccc1Br)Oc1ccccc1 (configuration not stated) | inactive: -2.75%
16 | CCOP(C)(=S)SCC(=O)NC(C)C(=O)O (configuration not stated) | inactive: 5.72%
17 | CCOC(=O)c1ccc(NP(C)(=O)Oc2ccc(OC)cc2)cc1 (configuration not stated) | inactive: -0.289%
18 | CP(=O)(Nc1ccccn1)Oc1ccc(Cl)cc1 (configuration not stated) | inactive: 2.51%
19 | CP(=O)(Oc1ccccc1)OC(c1ccccc1)C(F)(F)F (configuration not stated) | inactive: 0.352%
20 | Cc1cccc(C)c1OP(C)(=O)Nc1ccc(SC(F)(F)F)cc1 (configuration not stated) | inactive: -3.07%
21 | CP(=O)(Nc1ccc(SC(F)(F)F)cc1)Oc1ccc(Cl)cc1 (configuration not stated) | inactive: 3.08%

Row | SMILES | activity change, negative = inhibition
22 | Cc1cc(C)cc(OP(C)(=O)Nc2ccc(SC(F)(F)F)cc2)c1 (configuration not stated) | inactive: -1.89%
23 | CP(=O)(NC(=O)Nc1ccccc1)Oc1ccccc1 (configuration not stated) | inactive: 0.0857%
24 | CCc1ccc(OP(C)(=O)N2CCN(c3ccc([N+](=O)[O-])cc3)CC2)cc1 (configuration not stated) | inactive: 0.994%
25 | Cc1nc2ccc3ccccc3c2s1.O=[N+]([O-])c1cc([N+](=O)[O-])c(O)c([N+](=O)[O-])c1 | inactive: 13%
26 | O=[N+]([O-])c1cc([N+](=O)[O-])c(-n2nnc3ccccc32)c([N+](=O)[O-])c1 | inactive: 19.9%
27 | CC(C)N(CCCl)C(C)C | inactive: 0.671%
28 | COc1ccccc1OP(C)(=O)Nc1c(C)cccc1C (configuration not stated) | inactive: 0.482%
29 | CN1CCCCC1COC(=O)C1(O)c2ccccc2CCc2ccccc21 (configuration not stated) | inactive: 2.99%
30 | CCCOc1ccc(NP(C)(=O)Oc2ccc(Cl)cc2)cc1 (configuration not stated) | inactive: 1.68%
31 | CP(=O)(Nc1ccc(SC(F)(F)F)cc1)Oc1ccccc1 (configuration not stated) | inactive: -1.87%
32 | O=[N+]([O-])c1cc([N+](=O)[O-])c(Nc2nnnn2CCO)c([N+](=O)[O-])c1 | inactive: 0.13%
33 | O=[N+]([O-])OCC(CO[N+](=O)[O-])(CO[N+](=O)[O-])CO[N+](=O)[O-] | inactive: 0.0496%
34 | CC1=NCCc2c1[nH]c1ccccc21.O=[N+]([O-])c1cc([N+](=O)[O-])c(O)c([N+](=O)[O-])c1 | inactive: 8.62%
35 | Cc1cc(C)cc(OP(C)(=O)Nc2ccccn2)c1 (configuration not stated) | inactive: -0.419%
36 | CP(=O)(Nc1cccc(Br)c1)Oc1ccccc1 (configuration not stated) | inactive: -7.64%
37 | Cc1ccc(C)c(NP(C)(=O)Oc2ccccc2)c1 (configuration not stated) | inactive: -1.3%
38 | COc1ccccc1OP(C)(=O)Nc1cccc(Br)c1 (configuration not stated) | inactive: -0.19%
39 | Cc1cc(C)cc(OP(C)(=O)Nc2ccc(C)cc2C)c1 (configuration not stated) | inactive: 5.5%
40 | CCOC(=O)c1ccc(NP(C)(=O)Oc2cc(C)cc(C)c2)cc1 (configuration not stated) | inactive: 3.91%
41 | O=C(OCCN1CCN(CCOCc2ccccc2)CC1)C(O)(c1ccccc1)c1ccccc1 | inactive: -0.279%
42 | CC(C)c1ccc(OP(C)(=O)Nc2ccc(SC(F)(F)F)cc2)cc1 (configuration not stated) | inactive: -1.1%

Row | SMILES | activity change, negative = inhibition
43 | CP(=O)(Nc1ccccc1F)Oc1ccccc1 (configuration not stated) | inactive: -0.69%
44 | CCN(CC)CCCOC(=O)C(O)(c1ccccc1)C1CCCCC1 (configuration not stated) | inactive: 3.36%
45 | CCCCCOc1ccc(NP(C)(=O)Oc2ccc(Cl)cc2Cl)cc1 (configuration not stated) | inactive: -7.57%
46 | CP(=O)(Nc1ccccc1)Oc1ccc(F)cc1 (configuration not stated) | inactive: 0.178%
47 | COc1ccc(OP(C)(=O)Nc2ccc(SC(F)(F)F)cc2)cc1 (configuration not stated) | inactive: 0.435%
48 | CCOC(=O)c1ccc(NP(C)(=O)Oc2ccc(F)cc2)cc1 (configuration not stated) | inactive: -3.77%
49 | Cc1cc(-c2cccc3ccccc23)c(C)cn1.O=[N+]([O-])c1cc([N+](=O)[O-])c(O)c([N+](=O)[O-])c1 | inactive: 6.54%
50 | O=[N+]([O-])c1ccc(OP2(=O)COCCO2)cc1 (configuration not stated) | inactive: 1.18%
51 | COc1ccc(OP(C)(=O)Nc2cccc(Br)c2)cc1 (configuration not stated) | inactive: -1.78%
52 | COc1ccc(NP(C)(=O)Oc2ccccc2OC)cc1 (configuration not stated) | inactive: 1.45%
53 | CN(C)CCOC(=O)C(O)(c1ccccc1)C1CCCCC1 (configuration not stated) | inactive: 1.73%
54 | CP(=O)(Nc1ccc2c(c1)OCCO2)Oc1ccccc1 (configuration not stated) | inactive: 2.67%
55 | Cc1ccccc1NP(C)(=O)Nc1ccccc1C | inactive: 2.08%
56 | CCN(CCCl)Cc1ccccc1C | inactive: 0.3%
57 | CP(=O)(Nc1ccc(SC(F)(F)F)cc1)Oc1ccc(F)cc1 (configuration not stated) | inactive: -0.428%
58 | CCOP(C)(=S)SCC(=O)NC(C)(CC)C(=O)O (configuration not stated) | inactive: 0.319%
59 | COc1ccccc1OP(C)(=O)Nc1ccccc1Br (configuration not stated) | inactive: -1.03%
60 | CC(C)(C)c1ccc(OP(C)(=O)O)cc1 | inactive: 9.08%
61 | COc1ccc(OP(C)(=O)Nc2ccc(Br)cc2)cc1 (configuration not stated) | inactive: 2.03%
62 | CCN(CC)CC(O)COC(=O)C(O)(c1ccccc1)C1CCCCC1 (configuration not stated) | inactive: -0.874%
63 | CCc1ccc(OP(C)(=O)Nc2cccnc2)cc1 (configuration not stated) | inactive: 4.01%

Row | SMILES | activity change, negative = inhibition
64 | CP(=O)(Oc1ccccc1)N1CCOC1=O (configuration not stated) | inactive: 3.17%
65 | OCCSCCO | inactive: 3.57%
66 | O=C(OCCCN1CCCC1)C(O)(c1ccccc1)C1CCCCC1 (configuration not stated) | inactive: 0.883%
67 | COc1ccccc1OP(C)(=O)Nc1c(C)n(C)n(-c2ccccc2)c1=O (configuration not stated) | inactive: 1.94%
68 | C/C1=C2N=C(/C=C3N=C(/C(C)=C4\[N-][C@@](C)([C@H]5N=C1[C@@](C)(CCC(=O)NC[C@H](C)OP(=O)([O-])O[C@@H]1[C@H](O)[C@H](n6cnc7cc(C)c(C)cc76)O[C@@H]1CO)[C@@H]5CC(N)=O)[C@](C)(CC(N)=O)[C@H]4CCC(N)=O)[C@@](C)(CC(N)=O)[C@@H]\3CCC(N)=O)C(C)(C)[C@@H]/2CCC(N)=O.[C-]#N.[Co+3] | inactive: 0.562%
69 | CP(=O)(OC12CC3CC(CC(C3)C1)C2)OC12CC3CC(CC(C3)C1)C2 | inactive: 0.394%
70 | CCOC(=O)c1ccc(NP(C)(=O)Oc2ccc(Cl)cc2)cc1 (configuration not stated) | inactive: 1.83%
71 | CP(=O)(Nc1ccc(Cl)cc1Cl)Oc1ccccc1 (configuration not stated) | inactive: -2.43%
72 | CP(=O)(OCCOc1ccccc1)OCCOc1ccccc1 | inactive: 0.631%
73 | Cc1cc(C)cc(OP(C)(=O)Nc2cccc(C(F)(F)F)c2)c1 (configuration not stated) | inactive: -4.11%
74 | COc1ccc(OP(C)(=O)Nc2ccccc2Br)cc1 (configuration not stated) | inactive: -0.0387%
75 | COc1ccccc1OP(C)(=O)Nc1ccc(C)c(C)c1 (configuration not stated) | inactive: -0.967%
76 | Cc1c(NP(C)(=O)Oc2ccc(C(C)C)cc2)c(=O)n(-c2ccccc2)n1C (configuration not stated) | inactive: -0.384%
77 | CCc1ccc(OP(C)(=O)O)cc1 | inactive: 1.09%
78 | COc1ccccc1OP(C)(=O)Nc1ccc(C)cc1C (configuration not stated) | inactive: 0.31%
79 | CP(=O)(Nc1ccccn1)Oc1ccccc1 (configuration not stated) | inactive: 1.69%
80 | COc1ccccc1OP(C)(=O)Nc1ccc(Br)cc1 (configuration not stated) | inactive: -1.46%
81 | CN(C)CCOC(=O)C(O)(c1ccccc1)C1CCCC1 (configuration not stated) | inactive: 2.44%
82 | COc1ccc(OP(C)(=O)Nc2ccccn2)cc1 (configuration not stated) | inactive: -0.211%
